Assay results as given in patent publication US20150164910A1, “ANTIVIRAL COMPOUNDS AND METHODS OF USE” (The Regents of the University of Califonia, priority 2012, published 2015).
Counter-ions that a name gives are not always drawn.

Legend:
[1] = test system: eGFP-expressing recombinant CVB3; type: cell-based, coxsackievirus B3; settings: read 6 hr post infection
[2] = test system: coxsackievirus B1, (CVB1); settings: HeLa-RW, with or without fluoxetine, plaque reduction (FIG. 4)
coxsackievirus B2 (CVB2) = settings: HeLa-RW, with or without fluoxetine, plaque reduction (FIG. 4)
coxsackievirus B3 (CVB3) = experiment: Cell viability assay, prevention of cell death caused by CVB3 infection; type: cell-based; settings: 50% Cytotoxic concentration/50% activity concentration
Protocol: Procedure: Enteroviruses rapidly cause cell death, and a cell viability assay was used to examine the cytotoxicity of each compound and to identify the concentration needed to prevent cell death caused by coxsackievirus B3 (CVB3) infection.
Compounds were diluted two-fold and added to wells of 384 well plate. HeLa-RW cells were then added (cytotoxicity testing), or cells and CVB3 were added to provide a low multiplicity of infection to determine concentration of peak activity or 50% maximal concentration. Selectivity index is defined as the 50% Cytotoxic concentration/50% activity concentration

[3] = test system: coxsackievirus B3-MCH (CVB3-MCH); settings: HeLa-RW, with or without fluoxetine, plaque reduction (FIG. 4)
CVB3-H3 = experiment: Plaque reduction assay, CVB3-H3 in HeLa-RW cells; type: cell-based, coxsackievirus B3; settings: compound added 30 min before infection, CVB3-H3 MOI 1, HeLa-RW, 6 hours; log10(titer with DMSO only/titer with inhibitor)

## CNCCC(Oc1ccc(C(F)(F)F)cc1)c1ccccc1 (centres unmarked) [Compound 72, N-Methyl-3-phenyl-3-[4-(trifluoromethyl)phenoxy]-1-propanamine hydrochloride (1:1), reference compound]
[1]; compound added 0 hr post infection at its peak activity concentration, DMSO 26.0
  % of eGFP + cells, 0 Hr: 0.0%
[1]; compound added 1 hr post infection at its peak activity concentration, DMSO 23.7
  % of eGFP + cells, 1 Hr: 0.0%
[1]; compound added 2 hr post infection at its peak activity concentration, DMSO 24.8
  % of eGFP + cells, 2 Hr: 0.0%
[2]
  reduction of replication, CVB1: 4.2 log 10 units
Coxsackievirus B2 (CVB2)
  reduction of replication, CVB2: 4.2 log 10 units
Coxsackievirus B3 (CVB3)
  Selectivity index: 11
[3]
  reduction of replication, CVB3-MCH: 3.6 log 10 units
CVB3-H3
  Log10 reduction of virus titer: 4.7
